From PubChem
An excerpt weighted towards active compounds, which were near 1.5% of everything screened.
HIV Env fusion = blocks HIV Env-driven cell-cell fusion; HeLa-JRFL Env/CEM21 cell fusion, luciferase; inhibition, % at 12.3 µM; hit rate 1.1% among 360,000;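 active means mean replicate inhibition score of at least 50 and every replicate individually at or above 50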;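 further: 0% = plate neutral controls and 100% = maraviroc near 300 nM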
Yeast UUG start-1 = modulators of start codon recognition fidelity in yeast; S. cerevisiae UUG-firefly luciferase reporter, luminescence/redox ratio; activity score, % at 18.7 µM; hit rate 0.13% among 350,000; AID 602363;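 active = replicate mean at a twofold rise or more, about +100% in these data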;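 note: firefly luciferase made from a UUG start codon reports start codon fidelity; reporter light over untreated wells divided by growth signal over untreated wells; some hits fall short of that in this replicate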
FN deposit inh = fibronectin deposition inhibition; AH1F fibroblasts, Alexa488-fibronectin deposition fluorescence, overnight; inhibition, % at 12.6 µM; hit rate 0.086% among 350,000; AID 743247;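 active means mean inhibition across replicates of 30% or more, regardless of how many single replicates reach that level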;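 further: positive control wells lacked labelled fibronectin entirely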
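Material: AH1F fibroblasts assembling fluorescent fibronectin matrix; amount: 10000 AH1F cells/well; medium: DMEM, 2% serum; reagent: Alexa488-fibronectin, 24 nM final in well; dosing: single compound dose, delivered by pin transfer; incubation: 1 h adhesion, overnight exposure; detection: fluorescence after three HBSS washes, excitation 485 nm, emission 525 nm; measure: fibronectin deposition inhibition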
PGC1a acetyl inh = PGC1a acetylation modulation, inhibitor mode | U2OS PGC1a acetylation, AlphaScreen anti-acetyl-lysine; with virally co-expressed GCN5 acetyltransferase | inhibition, % at 15.6 µM | hit rate 0.17% among 350,000 | AID 651687;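 active means every replicate shows inhibition of at least 40%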;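 further: 0% = neutral control wells and 100% = positive control wells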
miR-122 sensor = inhibitors of miR-122 in Huh7 cells | Huh7 miR-122 Renilla luciferase sensor, 48 h; neutral wells = 0, positive control = 100 | activation (reporter increase), % at 12.5 µM | hit rate 0.3% among 340,000;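 active means mean replicate activation score at least 90 and every replicate individually at or above 90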;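 further: higher luciferase means less miR-122 activity so hits act as miR-122 inhibitors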
Cneo AK release = Cryptococcus neoformans lysis via adenylate kinase release; C. neoformans lysis, adenylate kinase release luminescence, 4 h; normalised: neutral wells 0, clomiphene wells 100; lysis activity, % at 15 µM; hit rate 0.2% among 360,000; AID 651654;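 active means mean lysis activity across replicates of at least 80%, whatever share of replicates individually reach that level; inactive means mean lysis activity below 80%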
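Material – Cryptococcus neoformans yeast cells · Quantity – 5 × 10^6 yeast cells/mL · Buffer or medium – YPD medium · Compound – single dose · Timing – 4 h static compound exposure, 37 °C, read 1 h post-reagent · Signal – adenylate kinase release luminescence · Read-out basis – lysis from increased AK signal · Benchmarks – Clomiphene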
Yeast UUG start-2 = alters UUG start codon use in yeast. shares compounds with Yeast UUG start-1. S. cerevisiae UUG-start firefly luciferase, luminescence, 4 h; 100% means double the DMSO signal. activation, % at 38 µM. 540 tested, under 10 active;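 active means signal increase whose fitted curve reaches an absolute level of 40 at a concentration under 10 µM; inactive means activity opposite to the expected increase, or the rest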
* marks the source's active call; other numbers are inactive results; i = inactive; / = no result given; ! = a repeat was not active; [ ] = remark or other dose.

#	mol	Yeast UUG start-1	PGC1a acetyl inh	FN deposit inh	Cneo AK release
1	OC(C#CCN1CCCCCC1)(c1ccccc1)c1cccnc1 (stereo not given)	/	/	-11.8	/
2	CCCN(CC#CC(O)(c1ccccc1)c1cccnc1)CCC (stereo not given)	/	/	/	/
3	OC(C#CCN1CCCC1)(c1ccccc1)c1cccnc1 (stereo not given)	133.6*	10.4	-6.2	-1.3
4	CCN(CC)CCC#CC(O)(c1ccccc1)c1ccccc1	/	/	-2.0	/
5	CC(C)C(O)(C#CCN1CCCC1)c1ccccc1 (stereo not given)	/	13.6	/	/
6	O=C(CSc1nc(C2CCCCC2)nc2ccccc12)N1CCCC1	/	/	-1.3	/
7	CCCc1nc2ccc(C)cn2c1Cc1ccccc1C(F)(F)F	105.3*	10.1	-3.4	19.9
8	CCCc1nc2ccc(C)cn2c1Cc1ccccc1OC	44.6	-3.8	-10.0	5.1

#	miR-122 sensor	Yeast UUG start-2	HIV Env fusion
1	/	21.8	-7.5
2	/	-2.7	17.4
3	1.4	-4.0	-2.7
4	/	/	-5.8
5	1.3	-1.2	/
6	/	/	-0.3
7	0.5	0.3	37.2
8	-2.5	/	18.8

Fetched one by one from the entries so far:
#	mol	Yeast UUG start-1	PGC1a acetyl inh	FN deposit inh	Cneo AK release
1	OC(C#CCN1CCCCCC1)(c1ccccc1)c1cccnc1 (stereo not given)	/	/	-11.8	/
6	O=C(CSc1nc(C2CCCCC2)nc2ccccc12)N1CCCC1	/	/	-1.3	/

#	miR-122 sensor	Yeast UUG start-2	HIV Env fusion
1	/	21.8	-7.5
6	/	/	-0.3

Carrying on:
#	mol	Yeast UUG start-1	PGC1a acetyl inh	FN deposit inh	Cneo AK release
9	CC1=NN(C(C#N)c2ccccc2)C(C)(C)C1 (stereo not given)	/	1.1	6.3	/
10	COc1ccc(C(C#N)N2CCC(c3ccccc3)=N2)cc1 (stereo not given)	182.7*	-4.2	7.4	-6.1
11	CCOC(=O)c1c(NC(=O)CSc2nc3ccccc3s2)sc(C)c1C	-4.2	/	-7.5	2.7
12	CNC(=O)c1ccccc1NC(=O)c1cccc(S(=O)(=O)N2CCC(C)CC2)c1	/	-13.2	/	/
13	CNC(=O)c1ccccc1NC(=O)c1cccc(S(=O)(=O)N2CCCCC2)c1	188.3*	5.3	-9.0	-4.0
14	CC(=O)N1CSCC1C(=O)NNS(=O)(=O)c1ccccc1 (stereo not given)	124.0*	-2.3	1.5	-2.1
15	COc1ccc(N2CCN(C(=O)CN3C(=O)NC4(CCCCC4C)C3=O)CC2)cc1 (stereo not given)	-9.2	11.0	-11.8	1.7
16	CCOc1ccc(C=NC23CN4CN(CN(C4)C2)C3)cc1	462.0*	-0.5	/	2.7

#	miR-122 sensor	Yeast UUG start-2	HIV Env fusion
9	0.7	/	4.8
10	2.2	-4.2	-21.1
11	-2.2	/	11.7
12	34.2	/	/
13	-3.0	-3.0	10.7
14	-5.3	-5.7	12.1
15	-4.0	/	5.6
16	-0.5	8.4	-63.9

(next part)
#	mol	Yeast UUG start-1	PGC1a acetyl inh	FN deposit inh	Cneo AK release
17	Cc1ccc(C2=NNC(c3cccc(F)c3)S2)cc1 (stereo not given)	/	/	-2.3	/
18	Fc1cccc(C2NN=C(c3ccccc3)S2)c1 (stereo not given)	267.4*	-1.9	1.1	-3.3
19	Cc1cc(-n2c(C)cc(C(=O)CSc3nncn3C)c2C)no1	-23.6	-2.8	-2.2	-1.1
20	Cc1cc(-n2c(C)cc(C(=O)CSc3nncn3C(C)C)c2C)no1	/	/	2.4	/
21	COc1ccc(N(CC(=O)Nc2ccccc2C(=O)N2CCOCC2)S(=O)(=O)c2ccc(F)cc2)cc1	/	0.8	10.3	/
22	CCN1CCN(Cc2ccc(NC(=O)c3ccc(C)c(NC(=O)N4CCNC4=O)c3)cc2C(F)(F)F)CC1	130.6*!	-6.1	7.2	0.0
23	O=C(Cn1cc(COc2ccccc2C(F)(F)F)nn1)c1ccc(O)cc1	140.7*	/	-3.4	13.0
24	CC(=O)Nc1ccc(OCc2cn(CC(=O)c3ccc(O)cc3)nn2)cc1	96.5*	-4.9	-6.1	0.3

#	miR-122 sensor	Yeast UUG start-2	HIV Env fusion
17	/	/	-90.6
18	5.1	-13.2	-105.1
19	1.3	/	23.7
20	/	4.4	-5.9
21	/	/	17.1
22	-6.7	13.2	17.6
23	1.3	4.4	/
24	2.3	-6.7	-29.3

The listing continues:
#	mol	Yeast UUG start-1	PGC1a acetyl inh	FN deposit inh	Cneo AK release
25	COc1cc(C(C)=O)ccc1OCc1cn(CC(=O)c2ccc(O)cc2)nn1	156.8*	/	-7.3	10.7
26	CC(=O)c1ccc(N2CCN(C(=O)CCN3C(=S)NC(C)(C)CC3C)CC2)cc1 (stereo not given)	/	3.0	-8.0	/
27	COCCn1c(SCC(=O)/C=C2\N(C)c3ccccc3C2(C)C)nnc1-c1ccncc1	/	/	-3.0	/
28	O=C(Nc1ccc(-c2ccccc2)cc1)[C@H]1[C@H](CO)[C@H]2Cn3c(cccc3=O)[C@H]2N1CC1CCOCC1	14.7	/	1.0	-5.1
29	O=C(CN1CCOCC1)NCC[C@@H]1CC[C@H](NC(=O)Nc2ccc(Cl)cc2)[C@@H](CO)O1	119.4*	2.9	/	2.5
30	O=C(CN1CCOCC1)NCC[C@H]1CC[C@H](NC(=O)Nc2ccc(F)cc2)[C@H](CO)O1	184.4*	-0.8	-6.1	2.4
31	COc1cc(S(=O)(=O)N2CCOCC2)ccc1N	/	-2.2	-6.7	/
32	COc1cc(S(=O)(=O)N2CCOCC2)ccc1F	196.1*	/	/	-6.3

#	miR-122 sensor	Yeast UUG start-2	HIV Env fusion
25	0.4	-1.4	8.4
26	/	/	15.7
27	/	/	6.0
28	-3.6[16.7 µM]	/	/
29	/	i	-22.7[16.7 µM]
30	/	i	-20.8[16.7 µM]
31	/	/	3.5
32	-3.6	-0.6	/

Continued.
#	mol	Yeast UUG start-1	PGC1a acetyl inh	FN deposit inh	Cneo AK release
33	COc1c(C)cc(C(O)c2ncc(-c3cccc(F)c3)[nH]2)cc1C (stereo not given)	-18.6	-15.3	7.0	-1.4
34	Cc1ccc(S(=O)(=O)N2CCN(C(=O)COC(=O)COc3cccc4c3OC(C)(C)C4)CC2)cc1	/	0.5	1.8	/
35	O=C(Nc1ccccc1)/C(=C/c1ccccc1)c1ccccc1	-14.5	-9.6	/	-6.3
36	Cc1ccccc1NC(=O)/C(=C/c1ccccc1)c1ccccc1	102.1*	/	/	-1.2
37	CCCN(CC(=O)Nc1ccccc1C)C(=O)Cc1cccs1	-16.0	6.7	-6.4	1.8
38	CCCN(CC(=O)Nc1ccccc1C)C(=O)/C=C/c1cccs1	active	/	6.5	4.1
39	COCC(=O)Nc1ccc2c(c1)OC[C@H](C)N(Cc1ccccc1)C[C@H](C)[C@H](OC)CN(C)C2=O	10.3	2.4	-1.0	48.6
40	Cn1nccc1-c1ccc(C(=O)Nc2cccc(NS(C)(=O)=O)c2)c2occc12	-15.0	23.1	4.0	-6.5

#	miR-122 sensor	Yeast UUG start-2	HIV Env fusion
33	14.0	/	/
34	-0.4	/	5.9
35	2.9	/	/
36	/	-1.1	/
37	12.0	/	/
38	-5.4	-4.4	/
39	3.2[16.7 µM]	/	/
40	8.6	/	/

The final 3 records of the part above come first, to join the parts.
#	mol	Yeast UUG start-1	PGC1a acetyl inh	FN deposit inh	Cneo AK release
38	CCCN(CC(=O)Nc1ccccc1C)C(=O)/C=C/c1cccs1	active	/	6.5	4.1
39	COCC(=O)Nc1ccc2c(c1)OC[C@H](C)N(Cc1ccccc1)C[C@H](C)[C@H](OC)CN(C)C2=O	10.3	2.4	-1.0	48.6
40	Cn1nccc1-c1ccc(C(=O)Nc2cccc(NS(C)(=O)=O)c2)c2occc12	-15.0	23.1	4.0	-6.5
41	O=C(NCC1CC1)c1ccc(-n2ccnc2)c2ccoc12	162.9*	18.5	3.8	2.8
42	CS(=O)(=O)Nc1cccc(NC(=O)c2ccc(-n3ccnc3)c3ccoc23)c1	115.1*	-5.2	3.7	-3.6
43	Cc1[nH]c2ccc(-c3n[nH]c(=S)n3Cc3ccccc3)cc2c1C	-11.7	-11.6	-9.2	-3.1
44	C/C=C/c1cnc2c(c1)C(=O)N([C@H](C)CO)C[C@H](C)[C@@H](CN(C)C(=O)Cc1ccccn1)O2	2.8	3.7	/	0.4
45	CC(C)CC#Cc1cnc2c(c1)C(=O)N([C@H](C)CO)C[C@@H](C)[C@H](CN(C)Cc1ccccn1)O2	144.1*	-4.0	-17.4	3.5
46	C/C=C/c1cnc2c(c1)C(=O)N([C@@H](C)CO)C[C@@H](C)[C@@H](CN(C)C(=O)Cc1ccccn1)O2	143.2*	3.6	/	3.5
47	O=C(Cc1ccccc1)NC(NNc1ccccc1)(C(F)(F)F)C(F)(F)F	480.8*	-1.0	/	0.5

#	miR-122 sensor	Yeast UUG start-2	HIV Env fusion
38	-5.4	-4.4	/
39	3.2[16.7 µM]	/	/
40	8.6	/	/
41	-0.7	-7.2	1.0
42	57.1	-8.2	-15.8
43	-3.3	/	-5.1
44	/	/	0.4[16.7 µM]
45	2.8[16.7 µM]	i	7.8[16.7 µM]
46	/	i	26.8[16.7 µM]
47	2.7	9.0	-64.9
